Measured values from patent US10604481B2, “(Thio, oxo and seleno) semicarbazone complexes with zinc and their use for treating cancer” (RUTGERS, THE STATE UNIVERSITY OF NEW JERSEY, priority 2015, dated 2020).

Test system: TOV112D (ovarian cancer, p53-R175H) cells
Assay: Intracellular [Zn2+]free imaging with FluoZin-3-AM, TOV112D
Type: cell-based, human
Settings: for increase of intracellular [Zn2+]free (FZ3 fluorescence): complete media

C/C(=N\NC(=S)N1CCC1)c1ccccn1 [Compound 6, (E)-N′-(1-(pyridin-2-yl)ethylidene)azetidine-1-carbothiohydrazide]
t1/2 of intracellular [Zn2+]free increase (ZMC1 and ZnCl2, EBSS/H (−)Ca/Mg, mean±SD, n=4): 2.6 ± 0.833 min
increase of intracellular [Zn2+]free (FZ3 fluorescence): increased intracellular [Zn^2+]free

C/C(=N\NC(=O)N1CCC1)c1ccccn1 [Compound 10, (E)-N′-(1-(pyridin-2-yl)ethylidene)azetidine-1-carbohydrazide]
increase of intracellular [Zn2+]free (FZ3 fluorescence): did not

O=C(O)CN(CC(=O)O)CC(=O)O [NTA, reference compound]
increase of intracellular [Zn2+]free (FZ3 fluorescence): did not
